ChEMBL document CHEMBL1134124, “Isoindolines: a new series of potent and selective endothelin-A receptor antagonists” (Bioorg Med Chem Lett, 2001)

The chains behind the UniProt entries cited, without tags or fusion partners.
UniProt P25101, whole entry: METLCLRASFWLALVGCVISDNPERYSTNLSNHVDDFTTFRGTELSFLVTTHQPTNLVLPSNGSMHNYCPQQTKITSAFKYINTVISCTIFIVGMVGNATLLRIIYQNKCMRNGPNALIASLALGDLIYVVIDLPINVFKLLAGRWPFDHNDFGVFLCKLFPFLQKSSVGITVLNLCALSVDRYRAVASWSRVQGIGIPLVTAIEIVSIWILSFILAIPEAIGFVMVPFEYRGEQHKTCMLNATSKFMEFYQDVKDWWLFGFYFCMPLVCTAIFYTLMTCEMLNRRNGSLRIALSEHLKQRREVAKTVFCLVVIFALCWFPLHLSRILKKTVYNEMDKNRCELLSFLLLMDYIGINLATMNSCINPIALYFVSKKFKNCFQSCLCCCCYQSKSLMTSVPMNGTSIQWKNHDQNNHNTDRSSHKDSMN

Target: Endothelin-1 receptor (Homo sapiens, UniProt P25101)
Experiment: In vitro inhibition of [125I]ET1 binding to CHO cells expressing recombinant human Endothelin A receptor
Type: cell-based

IC50: 1100 nM
Compound: CCOc1ccc2c(c1)[C@H](c1cc(OC)c(OC)c(OC)c1)N(CC(=O)O)[C@@H]2c1ccc2c(c1)OCO2
